Measured values as given in ChEMBL document CHEMBL2406965, “Optimization of N-benzoylindazole derivatives as inhibitors of human neutrophil elastase” (J Med Chem, 2013).
Calls of active or inactive are those of the source. The rule behind the calls is not given here.

Amino acid sequences for entries named in this document (tags omitted). Residues count along the entry.
UniProt P17538, 34-164 limits assumed: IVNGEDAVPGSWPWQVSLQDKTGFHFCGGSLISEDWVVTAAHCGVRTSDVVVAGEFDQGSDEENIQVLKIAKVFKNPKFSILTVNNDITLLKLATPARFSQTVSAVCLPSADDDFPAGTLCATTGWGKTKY
UniProt P17538, 167-263 limits assumed: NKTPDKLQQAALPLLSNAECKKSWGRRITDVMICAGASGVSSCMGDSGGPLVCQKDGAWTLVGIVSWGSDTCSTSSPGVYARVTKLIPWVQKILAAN

What was measured:
Neutrophil elastase = target: T1, Neutrophil elastase (Homo sapiens, UniProt P08246); test: Inhibition of human neutrophil elastase using N-methylsuccinyl-Ala-Ala-Pro-Val-7-amino-4-methylcoumarin as substrate measured every 30 seconds for 10 mins by fluorescence microplate reader analysis
T1 sequence (P08246 whole entry): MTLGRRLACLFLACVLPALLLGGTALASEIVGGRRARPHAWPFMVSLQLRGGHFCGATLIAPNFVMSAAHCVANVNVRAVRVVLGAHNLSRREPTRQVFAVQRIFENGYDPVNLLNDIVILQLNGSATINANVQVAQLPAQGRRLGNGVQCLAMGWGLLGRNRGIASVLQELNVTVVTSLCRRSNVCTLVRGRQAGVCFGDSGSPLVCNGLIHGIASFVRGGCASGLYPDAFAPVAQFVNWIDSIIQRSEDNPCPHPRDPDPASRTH

Chymotrypsinogen B = Chymotrypsinogen B (Homo sapiens, UniProt P17538); test: Inhibition of human pancreatic chymotrypsin using Suc-Ala-Ala-Pro-7-amino-4-methylcoumarin as substrate by fluorescence microplate reader analysis
[1] = target: T2, Neutrophil elastase (Homo sapiens) (UniProt P08246); test: Inhibition of human neutrophil elastase using N-methylsuccinyl-Ala-Ala-Pro-Val-7-amino-4-methylcoumarin as substrate at 5 uM after 4 hrs by fluorescence microplate reader analysis
T2 sequence (whole entry): T1 sequence (P08246 whole entry)

IC50 (Neutrophil elastase) | IC50 (Chymotrypsinogen B) | inhibition [1] | SMILES
15 nM | 15 nM | – | COC(=O)c1nn(C(=O)c2cccc(C)c2)c2ccc([N+](=O)[O-])cc12
– | 170 nM | – | CCOC(=O)c1nn(C(=O)c2cccc(C)c2)c2ccc(NC(C)=O)cc12
– | – | Active | COC(=O)c1nn(C(=O)c2cccc(C)c2)c2cc([N+](=O)[O-])ccc12
